# According to PubChem BioAssay AID1257 (The Scripps Research Institute Molecular Screening Center, 2008):
# Protein sequences, listed by entry. Tags and fused reporters are not part of them.
# UniProt P49146, whole entry, looked up: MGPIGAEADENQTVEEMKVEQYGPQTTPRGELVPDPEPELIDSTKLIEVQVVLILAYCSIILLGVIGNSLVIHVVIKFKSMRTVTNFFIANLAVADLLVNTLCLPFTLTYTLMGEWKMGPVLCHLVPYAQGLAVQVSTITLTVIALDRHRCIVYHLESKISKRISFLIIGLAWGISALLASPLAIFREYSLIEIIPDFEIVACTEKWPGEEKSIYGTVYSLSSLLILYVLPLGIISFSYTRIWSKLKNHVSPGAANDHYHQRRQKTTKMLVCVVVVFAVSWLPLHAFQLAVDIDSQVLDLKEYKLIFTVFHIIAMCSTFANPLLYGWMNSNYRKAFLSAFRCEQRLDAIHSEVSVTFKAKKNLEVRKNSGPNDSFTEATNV
# Only a part is listed here, and it is no random draw. Active and inactive are the calls of the source.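 How the source made its calls: active means mean inhibition of triplicate wells above the hit cutoff set in the primary screen (cut at about 17% in these data); inactive means the rest.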
# Target: Neuropeptide Y receptor type 2 (Homo sapiens) (UniProt P49146)
# Assay: NPY-Y2 receptor antagonists, retest of hits, confirmation, HEK293-CNG cells, membrane potential fluorescence, triplicate (AID 1257);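 further: 0% = DMSO with NPY challenge and 100% = BIIE0246 high control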
# Details: HEK293 NPY-Y2 CNG channel, at 2.8 µM, active compounds read high
# How it was run: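 Material: Y2 HEK293-CNG cell line | Compound: 2.8 µM single dose | Timing: NPY step 60 min, RT | Signal: Membrane potential dye fluorescence | Read-out: Fluorescence ratio at 30 min over baseline, scaled between controls | Controls: BIIE0246 high and DMSO low controls | Repeats: Triplicates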
smiles,measurement,value
CCc1nc2c(n1)c1c(non1O)c1c2no[n+]1[O-],inhibition,active: 54.9%
